Amino acid sequences for entries named in this document (tags omitted). Residues count along the entry.
UniProt P13612, 34-1032: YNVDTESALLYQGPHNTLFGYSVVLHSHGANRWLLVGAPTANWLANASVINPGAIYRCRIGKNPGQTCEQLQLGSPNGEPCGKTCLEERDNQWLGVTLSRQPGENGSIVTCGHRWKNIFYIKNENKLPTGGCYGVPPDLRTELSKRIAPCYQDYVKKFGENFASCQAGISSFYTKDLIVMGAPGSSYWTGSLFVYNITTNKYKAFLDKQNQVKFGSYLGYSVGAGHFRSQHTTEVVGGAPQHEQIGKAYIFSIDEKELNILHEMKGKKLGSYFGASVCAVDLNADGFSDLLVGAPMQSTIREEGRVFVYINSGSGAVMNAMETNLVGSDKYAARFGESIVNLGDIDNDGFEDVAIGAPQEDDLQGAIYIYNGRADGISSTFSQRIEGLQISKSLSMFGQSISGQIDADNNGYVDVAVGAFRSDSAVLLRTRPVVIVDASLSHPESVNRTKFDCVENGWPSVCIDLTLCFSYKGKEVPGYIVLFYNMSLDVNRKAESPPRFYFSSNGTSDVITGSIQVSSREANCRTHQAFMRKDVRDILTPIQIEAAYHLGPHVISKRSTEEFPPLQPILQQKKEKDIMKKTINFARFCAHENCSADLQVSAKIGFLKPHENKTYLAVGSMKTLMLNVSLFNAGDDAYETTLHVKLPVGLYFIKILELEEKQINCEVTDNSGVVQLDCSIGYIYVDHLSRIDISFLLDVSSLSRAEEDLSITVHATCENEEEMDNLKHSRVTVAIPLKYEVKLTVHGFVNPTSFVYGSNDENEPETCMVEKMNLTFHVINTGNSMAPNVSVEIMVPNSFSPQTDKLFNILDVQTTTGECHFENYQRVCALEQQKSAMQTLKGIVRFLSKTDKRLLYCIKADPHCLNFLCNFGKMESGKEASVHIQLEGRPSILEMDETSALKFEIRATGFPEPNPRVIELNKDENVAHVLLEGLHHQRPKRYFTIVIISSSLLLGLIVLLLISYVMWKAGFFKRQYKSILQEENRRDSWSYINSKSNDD
UniProt P26010, 20-798: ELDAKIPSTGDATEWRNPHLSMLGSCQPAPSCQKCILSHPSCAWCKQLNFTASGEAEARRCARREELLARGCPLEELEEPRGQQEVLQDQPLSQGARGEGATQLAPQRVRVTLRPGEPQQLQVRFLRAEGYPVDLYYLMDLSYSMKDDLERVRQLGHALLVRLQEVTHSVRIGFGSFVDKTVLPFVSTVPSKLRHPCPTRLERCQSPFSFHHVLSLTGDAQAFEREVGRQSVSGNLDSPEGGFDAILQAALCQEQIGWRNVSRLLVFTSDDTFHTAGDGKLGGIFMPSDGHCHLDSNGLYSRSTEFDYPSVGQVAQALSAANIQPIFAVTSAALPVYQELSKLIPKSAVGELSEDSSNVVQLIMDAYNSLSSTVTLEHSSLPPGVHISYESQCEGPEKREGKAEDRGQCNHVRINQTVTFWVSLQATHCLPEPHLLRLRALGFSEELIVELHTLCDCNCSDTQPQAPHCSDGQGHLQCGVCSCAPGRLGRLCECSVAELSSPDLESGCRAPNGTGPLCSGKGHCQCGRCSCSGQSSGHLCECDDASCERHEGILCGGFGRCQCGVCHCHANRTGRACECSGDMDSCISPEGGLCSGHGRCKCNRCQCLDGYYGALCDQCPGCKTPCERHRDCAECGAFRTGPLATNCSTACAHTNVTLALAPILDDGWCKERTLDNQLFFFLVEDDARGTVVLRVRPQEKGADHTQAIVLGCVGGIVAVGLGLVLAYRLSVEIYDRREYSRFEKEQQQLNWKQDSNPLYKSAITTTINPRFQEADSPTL

In patent publication US20020103111A1, “Inhibitors of MAdCAM-1-mediated interactions and methods of use therefor” (Millennium Pharmaceuticals, Inc., priority 1996, published 2002):

Biological target: T1, murine MAdCAM-1 (MAdCAM-1/mCk fusion protein); α4β7-bearing HUT 78 cells (Homo sapiens, UniProt P13612+P26010)
T1 construct: host or cells: HUT 78 cells (endogenous α4β7); The MAdCAM-1/mCk partner was made in house in baculovirus-infected Sf9 insect cells, used as neat supernatant and captured by rat anti-mCk antibody
Test: Adhesion of HUT 78 cells to MAdCAM-1/mCk fusion protein bound via capture antibody
Assay type: cell-based
Conditions: for inhibition at 500 µM: HuT78, 500 μM compound; for IC50: HUT 78 cell adhesion to MAdCAM-1/mCk, average of two determinations
Method: The compounds of the present invention were evaluated for their biological properties.
A soluble fusion protein comprising murine MAdCAM-1 was produced in a baculovirus expression system and used in the adhesion assay. A fusion gene in which sequences encoding the signal peptide and extracellular domain of murine MAdCAM-1 were fused to sequences encoding a constant region of the murine kappa light chain (mCk) was constructed, and cloned into a baculovirus shuttle vector. Fusion protein produced from the resulting construct contained the integrin binding sequences of murine MAdCAM-1 at the amino-terminus, and the mCk sequence at the carboxy-terminus. Recombinant baculovirus encoding the fusion protein was harvested from infected Sf9 insect cells.
Human T-cell lymphoma cells (HUT 78 cells) activated with Mn^+2 were used for the adhesion assay in a 96-well format. HUT 78 cells were labelled by preincubation with ECECF-AM stain (Molecular Probes). Assays were conducted in a final volume of 200 μl. The adhesion of HUT 78 cells to MAdCAM-1/mCk fusion protein bound to wells via rat anti-mCk capture antibody was assessed in the presence or absence of each compound. […] Percent inhibition and IC50 values were determined.
HUT 78 cells (a human T cell lymphoma line; American Type Culture Collection, Accession No. ATCC TIB 161) were maintained in culture for up to one month in RPMI 1640 supplemented with 10% FCS, 20 mM HEPES, and Pen-Strep (1:100). Just prior to use in adhesion assays, cells were labeled with BCECF-AM as follows: 1×10^7 cells were pelleted at 1000 rpm for 10 minutes and resuspended in 25 mL cold PBS (Phosphate Buffered Saline). The cells were pelleted again, resuspended in cold PBS, and pelleted again. The cell pellet was resuspended in 25 ml PBS and labeled with 50 μl BCECF-AM (1 μg/μL in DMSO) for 30 minutes at 37° C. (BCECF-AM; 2′,7′-bis-(2-carboxyethyl)-5-(and-6)-carboxyflourescein, acetoxymethyl ester). The labeled cells were pelleted at 700 rpm for 10 minutes, resuspended in 25 ml cold Assay Buffer and pelleted.
The assay was performed in a 96-well format. Plates were coated overnight at 4° C. with 53 μl/well of a 5 μg/mL solution of rat anti-mCk in carbonate buffer. The plates were blocked for 1 hour at 37° C. with 100 μL/well of 1% BSA in PBS. The BSA/PBS solution was removed, and 50 μL of MAdCAM-mCk supernatant was added neat to each well. The assay was conducted under conditions in which capture antibody was the limiting reagent.
Cell adhesion was measured in the presence or absence of compounds. The compounds were resuspended in 100% DMSO, subsequently diluted 1:10 in water, and finally diluted again 1:10 in the assay: 50 μL of 2X Assay Bufler, 30 μL water, 20 μL of compound were added to each well. […] Cell adhesion occurred in 30 minutes at ambient temperature, after which plates were washed with 50 mM Tris/2 mM MnCl2, pH 7.2 using an EL 404 Microplate Autowasher (BIO-TEK Instruments) using the following wash parameters: wash volume=500 μL; two wash cycles; wash depth=80; aspirating after each wash.
Additional determinations were conducted as needed, so that each IC50 was determined over a range which encompassed the IC50.

Row | Compound | inhibition at 500 µM (HUT 78 cells, Mn2+ activated) [%] | % Adhesion Inhibition 500 μM (500 μM compound, HUT 78 cells, Mn2+ activated, 500 µM) [%] | IC50 [µM]
1 | CC(=O)N[C@@H](CC(C)C)C(=O)N[C@@H](CC(=O)O)C(=O)N[C@@H](C)C(=O)N[C@@H](CO)C(=O)N[C@@H](CC(C)C)C(N)=O [Example 2, Ac-Leu-Asp-Ala-Ser-Leu] | 47 | – | –
2 | CC(=O)N[C@@H](CC(C)C)C(=O)N[C@@H](CC(=O)O)C(=O)N[C@H](C(=O)N[C@@H](CO)C(=O)N[C@@H](CC(C)C)C(N)=O)[C@@H](C)O [Example 10, Ac-Leu-Asp-Thr-Ser-Leu] | – | 50 | –
3 | CC(=O)NCC(=O)N[C@@H](CC(C)C)C(=O)N[C@@H](CC(=O)O)C(=O)N[C@H](C(=O)N[C@@H](CO)C(N)=O)[C@@H](C)O [Example 13, Ac-Gly-Leu-Asp-Thr-Ser] | 43 | – | 745
4 | CC(=O)N[C@@H](CCCNC(=N)N)C(=O)NCC(=O)N[C@@H](CC(C)C)C(=O)N[C@@H](CC(=O)O)C(=O)N[C@H](C(N)=O)[C@@H](C)O [Example 16, Ac-Arg-Gly-Leu-Asp-Thr] | 48 | – | 542
5 | CC(=O)N[C@@H](CC(C)C)C(=O)N[C@@H](Cc1ccccc1)C(=O)N[C@H](C(=O)N[C@@H](CO)C(=O)N[C@@H](CC(C)C)C(N)=O)[C@@H](C)O [Example 40, Ac-Leu-Phe-Thr-Ser-Leu] | 29 | – | 300
6 | CC(=O)N[C@@H](CC(C)C)C(=O)N[C@@H](CCC(=O)O)C(=O)N[C@H](C(=O)N[C@@H](CO)C(=O)N[C@@H](CC(C)C)C(N)=O)[C@@H](C)O [Example 41, Ac-Leu-Glu-Thr-Ser-Leu] | 98 | – | 60.7
7 | CC(=O)N[C@@H](CC(C)C)C(=O)N[C@@H](CC(=O)O)C(=O)N[C@@H](CO)C(=O)N[C@@H](CO)C(=O)N[C@@H](CC(C)C)C(N)=O [Example 43, Ac-Leu-Asp-Ser-Ser-Leu] | 38 | – | 611
8 | CC(=O)N[C@@H](CC(C)C)C(=O)N[C@@H](CC(=O)O)C(=O)N[C@H](C(=O)N[C@H](C(=O)N[C@@H](CC(C)C)C(N)=O)[C@@H](C)O)[C@@H](C)O [Example 44, Ac-Leu-Asp-Thr-Thr-Leu] | 98 | – | 101
9 | CC(=O)N[C@@H](CC(C)C)C(=O)N[C@@H](CC(=O)O)C(=O)N[C@H](C(=O)N[C@@H](CO)C(=O)N[C@@H](Cc1ccccc1)C(N)=O)[C@@H](C)O [Example 45, Ac-Leu-Asp-Thr-Ser-Phe] | 86 | – | 144
10 | CC(=O)N[C@@H](CC(C)C)C(=O)N[C@@H](CC(=O)O)C(=O)N[C@H](C(=O)N[C@@H](CO)C(=O)N[C@@H](CC(C)C)C(N)=O)C(C)C [Example 47, Ac-Leu-Asp-Val-Ser-Leu] | – | – | 71
